Molecular target: T1, Gonadotropin-releasing hormone receptor (Rattus norvegicus, UniProt P30969)
T1 sequence (P30969 whole entry): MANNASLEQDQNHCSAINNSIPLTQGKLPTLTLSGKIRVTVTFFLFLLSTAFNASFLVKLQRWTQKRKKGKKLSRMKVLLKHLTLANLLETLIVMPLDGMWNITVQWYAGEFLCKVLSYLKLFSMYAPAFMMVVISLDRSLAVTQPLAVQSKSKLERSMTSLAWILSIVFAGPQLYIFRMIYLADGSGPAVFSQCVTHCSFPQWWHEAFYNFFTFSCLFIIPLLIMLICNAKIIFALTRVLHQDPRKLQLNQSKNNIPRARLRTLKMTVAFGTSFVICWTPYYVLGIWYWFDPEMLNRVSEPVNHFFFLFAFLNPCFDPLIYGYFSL
Assay: Displacement of [125I]D-Trp from rat GnRH receptor

IC50: 101 nM
Structure (SMILES): Cc1cc(C)cc(-c2[nH]c3sc(C(C)(C)C(=O)N4C5CCC4CC5)cc3c2C(=O)CN2CCN(CC(=O)N3CCCC3)CC2)c1

Reference: ChEMBL document CHEMBL1140569, “Synthesis and structure-activity relationships of thieno[2,3-b]pyrroles as antagonists of the GnRH receptor” (Bioorg Med Chem Lett, 2007)
